Earlier results, collected in patent US11279711B2, “Condensed heterocyclic derivates as BCL-2 inhibitors for the treatment of neoplastic diseases” (Newave Pharmaceutical Inc., priority 2017, dated 2022).

Amino acid sequences for entries named in this document (tags omitted).
UniProt P10415, whole entry: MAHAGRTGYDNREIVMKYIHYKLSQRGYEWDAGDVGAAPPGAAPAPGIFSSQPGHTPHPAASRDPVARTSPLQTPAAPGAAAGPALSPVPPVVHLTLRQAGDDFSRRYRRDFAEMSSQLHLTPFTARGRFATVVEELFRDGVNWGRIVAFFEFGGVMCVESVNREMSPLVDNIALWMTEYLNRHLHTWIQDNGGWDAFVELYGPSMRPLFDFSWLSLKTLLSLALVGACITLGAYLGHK

Target: Bcl-2 (Homo sapiens, UniProt P10415)
Settings: cited from earlier work

**Q.** Which Ki does the source give for `CC1(C)CCC(c2ccc(Cl)cc2)=C(CN2CCN(c3ccc(C(=O)NS(=O)(=O)c4ccc(N[C@H](CCN5CCOCC5)CSc5ccccc5)c(S(=O)(=O)C(F)(F)F)c4)cc3)CC2)C1` [ABT-263] here?
**A.** ≤ 1 nM
